Measured values published in PubChem BioAssay AID2380 (Sanford-Burnham Center for Chemical Genomics, 2010).
This is a selection; strong and weak results do not stand in their true shares. Calls of active or inactive are those of the source.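 The calls were made as follows: active = compounds whose signal lies at least 3.5 SD above the mean of all wells on their plate; inactive = the rest.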

Assay: inducers of MIN6 beta-cell proliferation, primary screen, ATP luminescence, uHTS (AID 2380);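 also: 0% = DMSO-treated cells in low-serum medium and 100% = 10% serum control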
Details: MIN6 cells proliferation, ATPlite luminescence, 48 h; at 10 µM; hits give high values; 100% = growth in 10% serum; cells starved in 0.2% serum

Compound	proliferation
CN(C(=O)Cc1ccc(Cl)c(Cl)c1)[C@H]1CCCC[C@H]1N1CCCC1	inactive: -1.4%
Cc1ccc(N/C(=N/P(=O)(N2CCOCC2)N2CCOCC2)N2CCOCC2)cc1	inactive: -0.81%
NC(=O)c1cc([N+](=O)[O-])cc([N+](=O)[O-])c1N	inactive: -1.21%
Clc1ccc(Cl)c(NC2=NCC(CBr)S2)c1 (stereo not given)	inactive: -0.07%
CN1CCCC(OC(=O)C(c2ccccc2)c2ccccc2)C1 (stereo not given)	inactive: -2.19%
COc1ccccc1OP(=O)(Nc1ccc(C)cn1)Oc1ccccc1OC	inactive: -1.36%
Cc1ccc(OP(=O)(Nc2nccs2)Oc2ccc(C)cc2)cc1	inactive: 2.27%
Oc1ccccc1CNc1ccccn1	inactive: -2.2%
Cc1c2non([O-])c-2c(C)[n+](=O)[n+]1[O-]	inactive: -5.77%
O=C(NC(Sc1ccncn1)C(Cl)(Cl)Cl)c1ccccc1 (stereo not given)	inactive: -0.73%
CC(C)CC(=O)NC(Sc1ccc(Cl)cc1)C(Cl)(Cl)Cl (stereo not given)	inactive: -4.41%
Nc1cc(N)c2nonc2c1[N+](=O)[O-]	inactive: -1.14%
O=P(Nc1nc2ccc(Cl)cc2s1)(c1ccccc1)c1ccccc1	inactive: -5.94%
O=C(O)c1ccccc1[As](=O)(O)O	inactive: -0.34%
CC(=O)Nc1ccc([As](=O)(O)O)cc1	inactive: 2.27%
CCOP(=O)(Nc1ccccc1)OCC	inactive: -2.13%
Cc1cc(SC(NC(=O)c2ccc(F)cc2)C(Cl)(Cl)Cl)ncn1 (stereo not given)	inactive: -1.41%
CN(C(=O)Cc1ccc(Cl)c(Cl)c1)[C@H]1CCCC[C@@H]1N1CCCC1	inactive: 1.17%
Cc1ccc(NP(=O)(Oc2ccccc2F)Oc2ccccc2F)nc1	inactive: -1.66%
O=[N+]([O-])c1cc([N+](=O)[O-])c(CCN2CCOCC2)c([N+](=O)[O-])c1	inactive: -6.4%
CCN(N=Nc1nonc1N)c1nonc1N	inactive: -1.84%
O=C(Nc1cc([As](=O)(O)O)ccc1O)c1ccccc1	inactive: -5.17%

Compound	proliferation
O=[N+]([O-])c1ncn(CCn2ncnc2[N+](=O)[O-])n1	inactive: 2.76%
CC(C)(C)C(=O)NC(Sc1ccncn1)C(Cl)(Cl)Cl (stereo not given)	inactive: -5.14%
O=[N+]([O-])c1cccc(NC2=NCC(CBr)S2)c1 (stereo not given)	inactive: -2.27%
COc1ccc(C2=NCC(CBr)S2)cc1 (stereo not given)	inactive: -4.52%
Cc1ccc(NP(=O)(Oc2ccccc2)Oc2ccccc2)nc1	inactive: -0.03%
O=[N+]([O-])c1cc([N+](=O)[O-])c(CCNc2ccccc2)c([N+](=O)[O-])c1	inactive: -7.07%
CCc1nc2c(n1)c1c(non1O)c1c2no[n+]1[O-]	inactive: -5.85%
CC(=O)N1C2C3N(C(C)=O)C1C1N(C(C)=O)C(C(N1C(C)=O)N3C(C)=O)N2C(C)=O	inactive: -0.16%
O=[N+]([O-])c1cccc2n[nH]nc12	inactive: 0.08%
CCN(/C(=N/P(=O)(N1CCOCC1)N1CCOCC1)N1CCOCC1)c1ccc(OC)cc1	inactive: -0.6%
Nc1ccc([As](=O)(O)c2ccc(N)cc2)cc1	inactive: -2.62%
C[N+]1=C2C=CC=CC=C2SC12C([N+](=O)[O-])=CC([N+](=O)[O-])=C[C-]2[N+](=O)[O-] (stereo not given)	inactive: -6.33%
CC1CCN(C(=O)Oc2c(Cl)cc(Cl)c3cccnc23)CC1	inactive: -1.8%
CC(C)=N/N=C(\N)N[N+](=O)[O-]	inactive: -0.25%
CN(C)C(=O)OCCc1n(C)cc[n+]1C	inactive: -0.95%
O=P(Nc1nccs1)(c1ccccc1)c1ccccc1	inactive: 2.72%
CC(C)C(=O)NC(Sc1ccccc1)C(Cl)(Cl)Cl (stereo not given)	inactive: 0%
c1nnnn1CCn1cnnn1	inactive: 0.32%
CN(C)C1(CNC(=O)c2ccc(Cl)c(S(N)(=O)=O)c2)CCCCC1	inactive: -2.02%
O=P(Nc1ccccn1)(c1ccc(Br)cc1)c1ccc(Br)cc1	inactive: -0.72%
O=P(Nc1nc2ccccc2s1)(c1ccccc1)c1ccccc1	inactive: -0.19%
O=[As](O)(c1ccccc1)c1ccc(O)cc1	inactive: -3.68%

Compound	proliferation
O=[N+]([O-])c1ncn(CCn2cnc([N+](=O)[O-])n2)n1	inactive: -2.15%
O=C(OC1CN2CCC1CC2)c1cccc(Cl)c1 (stereo not given)	inactive: -1.81%
Nc1ccc([As](=O)(O)c2ccc([N+](=O)[O-])cc2)cc1	inactive: -1.48%
C(Cc1nn[nH]n1)Cc1nn[nH]n1	inactive: 1.68%
c1ccc(-c2nn[nH]n2)c(-c2nn[nH]n2)c1	inactive: -2.72%
CCOC(=O)NC(Sc1ccccc1)C(Cl)(Cl)Cl (stereo not given)	inactive: -5.01%
Cc1ccc(NP(=O)(Oc2cccc(C)c2)Oc2cccc(C)c2)nc1	inactive: -0.79%
O=C(NC1CCS(=O)(=O)C1)NP(=S)(Oc1ccccc1)Oc1ccccc1 (stereo not given)	inactive: 0.46%
CCNC(=S)/N=C(\N)N[N+](=O)[O-]	inactive: 1.95%
O=C(OC1CN2CCC1CC2)c1ccccc1 (stereo not given)	inactive: -2.88%
CCC(=O)N1C2C3N(C(=O)CC)C1C1N(C(=O)CC)C(C(N1C(=O)CC)N3C(=O)CC)N2C(=O)CC	inactive: -2.02%
COC(=O)c1cc2c(s1)N=C(c1ccccc1)N(C)P2(=O)N1CCOCC1 (stereo not given)	inactive: -0.37%
Cc1ccc(OP(=O)(Nc2ccccn2)Oc2ccc(C)cc2)cc1	inactive: 0.02%
CC(=O)NC(SC(=S)N(CC(C)C)CC(C)C)C(Cl)(Cl)Cl (stereo not given)	inactive: 0%
Cc1ccccc1OP(=O)(Nc1ccccn1)Oc1ccccc1C	inactive: 0.85%
CC(NC(=O)COC(=O)C(O)(c1ccccc1)c1ccccc1)c1ccccc1 (stereo not given)	inactive: -4.3%
CN(C)C(=O)Oc1noc2ccccc12	inactive: 0.36%
O=P1(Nc2nc3ccc(Cl)cc3s2)COc2ccccc2O1 (stereo not given)	inactive: 0.29%
CCOc1ccc(C2=NCC(CBr)S2)cc1 (stereo not given)	inactive: -5.07%
CC(C)(C)C(=O)NC(Sc1ccccc1)C(Cl)(Cl)Cl (stereo not given)	inactive: -2.28%
Cc1ccccc1CN(C)C(=O)COC(=O)C(O)(c1ccccc1)c1ccccc1	inactive: -5.89%
